# This is a selection; strong and weak results do not stand in their true shares. The source made the active and inactive calls. The call rests on the fitted dose curve; in most records, active means well fitted inhibition curve with a large enough effect; inconclusive means small, poorly fitted or top-dose-only effect; inactive means flat fitted curve, though single readings scatter.
# Test system: Chaperonin Mm-Cpn (Methanococcus maripaludis)
# Experiment: Inhibitors of TCP-1 ring complex (TRiC) of Methanococcus maripaludis (MmCpn): qHTS; further: nearly all actives have a fitted effect of over 80% in size
# Conditions: purified Mm-Cpn ATPase, ADP Transcreener TR-FRET; at 76.9 µM (top of the series)
# From the text: The eukaryotic chaperonin TRiC (for TCP-1 ring complex) is an essential and conserved chaperone required for the folding and activation of 10-15% of the proteins encoded by the human genome. […] The TRiC complex consist of two stacked 7-9 membered rings, each containing a central cavity. Substrates are folded within the cavity in an ATP-dependent manner. TRiC is a complex of eight different, essential proteins. As each of the genes encoding the eight subunits is essential for cell viability and no protocol has been developed to over-express this enzyme to high levels. That is why several groups studying the TRiC chaperonin have turned to the archaeal homolog of TRiC, Methanococcus maripaludis (Mm-CPN), and have used this enzyme as a model system for the study of the type II chaperonin family. Small molecule inhibitors of the Mm-CPN enzyme would be extremely useful to study the mechanism of chaperonin activity. Importantly, TRiC and Mm-CPN both require ATP hydrolysis for function. Furthermore, the ATP binding sites are highly conserved among these type II chaperonins. This provides us with an easy, well tested and straightforward assay to identify inhibitors of chaperonin activity. The Mm-CPN assay was developed in 1536-well plate format using the HTRF Transcreener ADP assay kit (Cisbio, Bedford, MA). This assay applied the time resolved fluorescence resonance energy transfer (TR-FRET) principle. ATP in the presence of Mm-CPN is converted to ADP + Pi. An antibody labeled with Eu3+-Cryptate specific and bound to ADP labeled with […] (d2) competes with the unlabeled ADP generated by Mm-CPN. The resulting TR-FRET signal is inversely proportional to the concentration of ADP in the sample. In this assay a reduction in TR-FRET signal is observed with ATP turnover. NIH Chemical Genomics Center [NCGC] NIH Molecular Libraries Probe Centers Network [MLPCN] MLPCN Grant: DA030554-01A1 Assay Submitter (PI): Judith Frydman, Stanford University
# Purified Mm-CPN was supplied by the laboratory of Dr. Judith Frydman. Protein samples were stored at -80C as single use aliquots. Protein was thawed in ambient temperature water bath and placed on ice once thawed. Buffer was prepared fresh day of screen. The buffer composition below was used to prepare the working solution of the Mm-CPN protein and ATP substrate. The buffer is comprised of 30 mM TRIS pH 7.4, 100mM KCl, 5mM MgCl2, and 1mM DTT. A final concentration of 25nM Mm-CPN and 10uM ATP per well were used in the screen. Instructions according to the manufacturer were followed for the ADP Transcreener kit. Used 1536 well Greiner white, medium binding (MB), solid bottom plates. Plates were read on the PerkinElmer EnVision plate reader using Excitation = 320 nm and Emission = […], 665 nm. Protocol- 1.Dispense 1.5ul per well of working [Mm-CPN] = 50nM (or 75 ng / well) 2.Spin plate at 1000 rpm for 30 seconds 3.23nl of compound transferred per well 4.Incubate at 37degC for 10 minutes 5.Dispense 1.5ul per well of working [ATP] = 20uM 6.Incubate at 37degC for 30 minutes 7.Dispense 3ul per well of Anti-ADP Cryptate / ADP-d2 mix (prepared as instructed by Cisbio) 8.Incubate at ambient for 30 minutes 9.Read using EnVision
# On the % scale 0 is the no-effect control and ±100 the full control effect.
row,Compound,"activity, negative = inhibition"
1,CP(=O)(Oc1ccccc1)OC(c1ccccc1)C(F)(F)F (configuration not stated),inactive: -0.547%
2,CP(=O)(Nc1ccc(SC(F)(F)F)cc1)Oc1ccc(Cl)cc1 (configuration not stated),inactive: 0.308%
3,Cc1cccc(C)c1OP(C)(=O)Nc1ccc(SC(F)(F)F)cc1 (configuration not stated),inactive: 0.372%
4,Cc1cc(C)cc(OP(C)(=O)Nc2ccc(SC(F)(F)F)cc2)c1 (configuration not stated),inactive: -1.3%
5,CCc1ccc(OP(C)(=O)N2CCN(c3ccc([N+](=O)[O-])cc3)CC2)cc1 (configuration not stated),inactive: -0.428%
6,CP(=O)(NC(=O)Nc1ccccc1)Oc1ccccc1 (configuration not stated),inactive: -1.81%
7,CCOC(=O)c1ccc(NP(C)(=O)Oc2ccc(OC)cc2)cc1 (configuration not stated),inactive: -0.265%
8,CCOP(C)(=S)SCC(=O)NC(C)C(=O)O (configuration not stated),inactive: -0.405%
9,CP(=S)(Nn1cnnc1)Oc1ccccc1 (configuration not stated),inactive: 0.587%
10,CP(=O)(Nc1ccccc1Br)Oc1ccccc1 (configuration not stated),inactive: -0.193%
11,COc1ccccc1OP(C)(=O)Nc1ccccc1 (configuration not stated),inactive: -1.09%
12,O=[N+]([O-])c1cc([N+](=O)[O-])c(Nc2cccnc2)c([N+](=O)[O-])c1,inactive: -0.199%
13,O=[N+]([O-])c1ccc2c(c1)C=Nc1ccccc1O2,inactive: -0.0106%
14,Cc1cccc(C)c1OP(C)(N)=O (configuration not stated),inactive: 1.94%
15,CC(C)(C)c1ccc(OP(C)(=O)Nc2ccc(SC(F)(F)F)cc2)cc1 (configuration not stated),inactive: -2.57%
16,Cc1ccc(NP(C)(=O)Oc2ccccc2)c(C)c1 (configuration not stated),inactive: -0.453%
17,COc1ccccc1OP(C)(=O)Nc1ccc(C)cc1 (configuration not stated),inactive: 1.27%
18,CCOC(=O)c1ccc(NP(C)(=O)Oc2ccccc2)cc1 (configuration not stated),inactive: -0.774%
19,Cc1cc(C)cc(OP(C)(N)=O)c1 (configuration not stated),inactive: -3.27%
20,COc1ccc(OP(C)(=O)Nc2cccc(F)c2)cc1 (configuration not stated),inactive: -0.713%
21,COc1ccccc1OP(C)(=O)Nc1cc(Cl)ccc1C (configuration not stated),inactive: 0.173%
22,CCN(CC)CCCOC(=O)C(O)(c1ccccc1)c1ccccc1,inactive: -2.46%

# — PubChem BioAssay AID504842 (National Center for Advancing Translational Sciences (NCATS), 2011)
